The results in this text go back to PubChem BioAssay AID493098 (Sanford-Burnham Center for Chemical Genomics, 2011).

Protein sequences, listed by entry. Tags and fused reporters are not part of them. Lines headed by an entry give the natural chain unless they say otherwise; changes in a name come on top.
UniProt P51684: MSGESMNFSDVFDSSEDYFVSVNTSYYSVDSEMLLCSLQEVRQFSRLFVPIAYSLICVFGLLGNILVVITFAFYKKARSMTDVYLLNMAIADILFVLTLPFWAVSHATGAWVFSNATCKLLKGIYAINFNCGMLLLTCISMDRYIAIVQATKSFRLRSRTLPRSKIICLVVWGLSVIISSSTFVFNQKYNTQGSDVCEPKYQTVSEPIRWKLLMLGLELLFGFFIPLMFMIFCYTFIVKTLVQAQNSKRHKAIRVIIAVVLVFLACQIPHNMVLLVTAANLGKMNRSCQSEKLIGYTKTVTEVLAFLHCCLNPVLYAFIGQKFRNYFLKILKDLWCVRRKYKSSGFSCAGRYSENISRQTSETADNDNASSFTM

This is a selection; strong and weak results do not stand in their true shares. Calls of active or inactive are those of the source.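 How the source made its calls: active means compounds whose inhibition of the agonist-driven luminescence signal at 20 µM reaches about 50% (limit read from the data); inactive means the rest.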

The experiment has as its target C-C chemokine receptor type 6 (Homo sapiens) (UniProt P51684). The experiment in a line: blockers of CCL20-driven beta-arrestin recruitment to CCR6 – cell-based, CHO-K1, luminescence, uHTS, primary screen (AID 493098).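 Further: cells stimulated with CCL20 at 14 nM final; plate controls were DMSO with CCL20 for no effect and DMSO without agonist for full effect.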 As to conditions: CHO-K1 CCR6 PathHunter beta-arrestin, CCL20-stimulated, at 20 µM, active compounds read high.
On to `COc1ccccc1CNC(=O)COC(=O)C(O)(c1ccccc1)c1ccccc1`, for which the inhibition was inactive: 9.21%. On to `O=[As](O)(c1cccc(O)c1)c1cccc(O)c1`, for which the inhibition is inactive: -5.27%. Then `Cc1cccc(OCC(=O)OC2CN3CCC2CC3)c1` (stereo unspecified), with inactive: -5.67%.

As for `O=C(OC1CN2CCC1CC2)c1ccc(Cl)cc1` (stereo unspecified), the inhibition was inactive: 4.18%. Then `CS(=O)(=O)c1ccc(Cl)c(NC(=O)COC(=O)C(O)(c2ccccc2)c2ccccc2)c1`, with inactive: 9.7%; and `COc1cc(C(=O)NCC2(N3CCOCC3)CCCCC2)cc(Cl)c1OC(C)C`, with inactive: 5.34%. The value for `O=[As](O)(O)c1cccnc1` was inactive: 10%; that for `CCOP(=O)(Nc1cccc2ccccc12)OCC` was inactive: -7.52%; that for `COc1cc(C2NCCC3(OCCO3)C2(C)C)cc(OC)c1OC` (stereo unspecified) was inactive: 13.5%. The value for `Nc1cccc2c([As](=O)(O)O)cccc12` was inactive: -17.6%. Regarding `Cc1ccc(NCCc2c([N+](=O)[O-])cc([N+](=O)[O-])cc2[N+](=O)[O-])cc1`, the inhibition was inactive: 30.2%.

With `CCCOP(=S)(Nc1nc(N)cc(=O)[nH]1)OCCC`, the inhibition was inactive: 2.23%. `Nc1ccccc1[As](=O)(O)c1ccccc1`: the inhibition is inactive: -0.22%. As to `O=C(O)COc1ccc([As](=O)(O)O)cc1[N+](=O)[O-]`, the inhibition was inactive: 10.2%.

Turning to `O=P(Nc1nccs1)(c1ccccc1)c1nc2ccccc2s1` (stereo unspecified), the inhibition is inactive: -15.9%. On to `O=P(Nc1nccs1)(Oc1ccccc1)Oc1ccccc1`, for which the inhibition was inactive: 5.3%. Then `CCOP1(=S)c2c(C)nn(CCC#N)c2N=C(c2ccccc2F)N1C` (stereo unspecified), with inactive: 10.4%.

For the compound `CS(=O)(=O)c1cc([N+](=O)[O-])c2no[n+]([O-])c2c1`, the inhibition was inactive: 14.6%. Then `CN(C(=O)Cc1ccccc1)[C@@H]1CC[C@]2(CCCO2)C[C@H]1N1CCCC1`, with inactive: 12.3%; and `CCOP1(=S)c2c(C)nn(CCC#N)c2N=C(c2ccc(F)cc2)N1C` (stereo unspecified), with inactive: 17.1%; and `N#CCCN(C(=O)COC(=O)C(O)(c1ccccc1)c1ccccc1)c1ccc(F)cc1`, with inactive: -0.36%. Then `CN(C(=O)Cc1ccc(Cl)c(Cl)c1)[C@H]1CC[C@@]2(CCCO2)C[C@@H]1N1CCCC1`, with inactive: 7%.

As for `CN(C)C(=O)c1cc([N+](=O)[O-])cc2c1-c1c(cc([N+](=O)[O-])cc1[N+](=O)[O-])C2=O`, the inhibition was inactive: 41.7%. The value for `O=[N+]([O-])c1ccc2c(c1)nnn2O` was inactive: -3.86%. Then `NC(=O)Nc1ccc([As](=O)(O)O)cc1`, with inactive: -4.84%. In the case of `Cc1ccc(OP(=O)(Nc2ccc([N+](=O)[O-])cn2)Oc2ccc(C)cc2)cc1`, the inhibition was inactive: 22.4%. Then `Cc1ccc2nc3c(c(C)c2c1)CC(C(Cl)Cl)S3` (stereo unspecified), with inactive: 10.6%; and `COc1cc(C(=O)NCC2(N3CCOCC3)CCCCC2)ccc1OCC(C)C`, with inactive: 13.2%; and `O=[N+]([O-])c1ccc(-c2cc([N+](=O)[O-])c(O)c([N+](=O)[O-])c2)cc1`, with inactive: 30.5%. The value for `C[As](=O)(O)c1cccc(C(=O)O)c1` was inactive: -3.83%; that for `O=[As](O)(c1ccc(O)cc1)c1ccccc1O` was inactive: -9.73%. The value for `O=[N+]([O-])c1cc([N+](=O)[O-])c(-c2ccn[nH]2)s1` was inactive: -1.35%; that for `O=C(OC1CN2CCC1CC2)c1cccc2[nH]cnc12` (stereo unspecified) was inactive: 6.97%.

Consider `CCN(CC)C(=S)SC(NC=O)C(Cl)(Cl)Cl` (stereo unspecified), for which the inhibition was inactive: 37%. Then `CC(C)NC(=O)NP(=O)(Oc1ccccc1)Oc1ccccc1`, with inactive: 10%. Consider `ClCCSc1nnc(-c2cccnc2)o1`, for which the inhibition is inactive: 4.87%.

`CC(C)c1ccc(OP(=O)(Nc2ccccn2)Oc2ccccc2F)cc1` (stereo unspecified): the inhibition was inactive: 0.98%.

Turning to `COC(=O)C1(C)COP(=O)(N2CCCCCC2)OC1` (stereo unspecified), the inhibition is inactive: 3.67%.

On to `O=P1(N(CCCl)CCCl)Nc2ccccc2N1`, for which the inhibition is inactive: 8.39%. Then `O=P1(N(CCCl)CCCl)OCCCN1CCCl` (stereo unspecified), with inactive: 4.26%; and `COc1cc(I)ccc1[As](=O)(O)O`, with inactive: 7.8%; and `COc1ccc2nc(NP(=O)(c3ccccc3)c3ccccc3)sc2c1`, with inactive: 15.4%.

For `Cc1c2c(nc3ccccc13)SC(C(Cl)Cl)C2` (stereo unspecified), the inhibition is inactive: -14.1%. The value for `Cc1cc(=O)[nH]c(N[N+](=O)[O-])n1` was inactive: 16.4%; that for `O=C(OC1CN2CCC1CC2)C12CC3CC(CC(C3)C1)C2` (stereo unspecified) was inactive: 1.2%. In the case of `O=[N+]([O-])c1cc(Oc2ccc([N+](=O)[O-])cc2C(F)(F)F)cc([N+](=O)[O-])c1`, the inhibition is inactive: 6.09%.

For `COc1ccc(N/C(=N/P(=O)(N2CCOCC2)N2CCOCC2)N2CCOCC2)cc1`, the inhibition is inactive: -4.85%.

Take `O=C(Nc1ccncc1[N+](=O)[O-])c1ccc([N+](=O)[O-])cc1[N+](=O)[O-]`: the inhibition was inactive: -5.73%. The value for `O=C(COc1ccccc1)OC1CN2CCC1CC2` (stereo unspecified) was inactive: -5.41%; that for `COP1(=S)c2c(C)nn(CCC#N)c2N=C(c2ccc(F)cc2)N1C` (stereo unspecified) was inactive: -11.7%; that for `CCC(C)N(CC(C)C)C(=S)SC(NC(C)=O)C(Cl)(Cl)Cl` (stereo unspecified) was inactive: 30.5%.

As for `O=C(OC1CN2CCC1CC2)c1cccc([N+](=O)[O-])c1` (stereo unspecified), the inhibition is inactive: 2.6%.

Regarding `CCOC(=O)c1ccc(NC(=O)C(C)(CCl)SC)cc1` (stereo unspecified), the inhibition was inactive: 2.54%. The value for `Cc1cc(SC(NC(=O)c2ccccc2)C(Cl)(Cl)Cl)nc(C(C)C)n1` (stereo unspecified) was inactive: 16.4%; that for `CCCCOc1ccc(C(=O)NCC2(N3CCCCC3)CCCCC2)cc1OC` was inactive: 3.88%.

With `CCOC(=O)Nc1ccc([As](=O)(O)O)c(O)c1`, the inhibition was inactive: 7.95%. The value for `CC1CCNP(=O)(N(CCCl)CCCl)O1` (stereo unspecified) was inactive: -0.49%.

Take `O=P(Nc1ccccn1)(c1cccc2ccccc12)c1cccc2ccccc12`: the inhibition is inactive: 17.6%.

Regarding `Cc1cc(SC(NC=O)C(Cl)(Cl)Cl)ncn1` (stereo unspecified), the inhibition was inactive: 9.25%. Regarding `O=[N+]([O-])c1ccc(Nc2ccc(Oc3ccc([N+](=O)[O-])cc3[N+](=O)[O-])cc2)c([N+](=O)[O-])c1`, the inhibition is inactive: -0.57%.

`CCOC(=O)Nc1cccc([As](=O)(O)O)c1`: the inhibition was inactive: 8.34%.
